Only a part is listed here, and it is no random draw. Activity calls are given as the source filed them.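 Rule for the calls: active = fluorescence-lowering compounds whose fitted half-maximal concentration is at or below ten times the highest valid dose tested; inconclusive = flat curve at 30 to 70% inhibition, or poor fit; inactive = the rest.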

Amino acid sequences for entries named in this document (tags omitted). A change or cut given only in a name is not applied to a line headed by its entry.
UniProt O15379: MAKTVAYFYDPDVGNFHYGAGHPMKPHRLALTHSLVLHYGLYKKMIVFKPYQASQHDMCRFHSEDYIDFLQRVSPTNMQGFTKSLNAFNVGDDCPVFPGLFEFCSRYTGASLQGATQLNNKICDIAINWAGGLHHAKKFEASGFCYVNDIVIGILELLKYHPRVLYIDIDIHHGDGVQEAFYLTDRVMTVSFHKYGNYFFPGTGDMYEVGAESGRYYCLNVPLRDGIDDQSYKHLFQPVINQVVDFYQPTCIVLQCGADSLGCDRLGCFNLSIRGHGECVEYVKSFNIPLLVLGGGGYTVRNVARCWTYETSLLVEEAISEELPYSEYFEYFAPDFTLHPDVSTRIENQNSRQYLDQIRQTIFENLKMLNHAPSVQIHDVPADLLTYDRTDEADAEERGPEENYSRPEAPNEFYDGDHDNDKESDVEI

In the experiment the target is Histone deacetylase 3 (Homo sapiens) (UniProt O15379). The experiment is described as follows: inhibition of human HDAC3 enzymatic activity – biochemical, fluorescence, cherry-picked samples, counter-screen for JMJD2C/GASC1 demethylase inhibitor project, dose response (AID 485318).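 Note: enzyme preincubated with compound before substrate and trypsin were added; 0% = neutral control wells and -100% = SAHA positive control wells.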 The conditions noted are these: recombinant HDAC3, fluorogenic peptide/trypsin coupled; at 12 µM (top of the series).
With `Cc1ccc(OCC(=O)OC2CN3CCC2CC3)cc1` (stereo unspecified), the activity change, negative = inhibition is inactive: 0.221%.
